## Apparent affinities of Ab-14 variants for a coronavirus HR2 peptide

The target is the same throughout: PDVDLGDISGINAS, from the HR2 region of SARS-CoV-2 spike.

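The variants were designed computationally from a first round of random CDR variants and then made and measured. Several design methods are mixed in this list. Affinity was read by AlphaSeq, a pooled yeast mating assay with surface-displayed partners. Pairs that bind mate more often; barcode pairs of the diploids are counted by sequencing. Read counts were normalised to the haploid input and turned into Kd by a linear fit to BCL2-family pairs of known affinity, for each replicate. Each pool was mated in six replicate cultures.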

Parent: Ab-14, a human scFv built as VH, the linker GGGGSGGGGSGGGGS, VL. Only the CDRs of the light chain vary.
VH: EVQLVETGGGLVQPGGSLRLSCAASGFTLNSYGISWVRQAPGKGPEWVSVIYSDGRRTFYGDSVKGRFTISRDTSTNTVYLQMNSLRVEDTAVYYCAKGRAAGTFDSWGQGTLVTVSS
VL: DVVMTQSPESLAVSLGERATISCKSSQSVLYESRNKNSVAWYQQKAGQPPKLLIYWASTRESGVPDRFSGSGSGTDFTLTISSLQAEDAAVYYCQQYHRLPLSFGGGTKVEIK

Variants are written as CDR1, CDR2 and CDR3 of the light chain (limits as in the source). Parent: KSSQSVLYESRNKNSVA, WASTRES, QQYHRLPLS. Variants here have more than six changes. The read-out is the apparent dissociation constant on a log10 scale (nM): the lower, the stronger. The mean shown is taken over the replicates in which the pair was detected. An entry "nd" has no value in the source: the pair was not observed among the diploids in any replicate. This suggests poor binding but is not conclusive. A sequence measured in both rounds can read differently, since the two assays cover different ranges. In the paper, a design with two or fewer of six values counts as a poor binder. Empty control strains, which show no peptide, gave a signal in 4% of pairings with all light chain designs; the median was 2.64 and 95% of these signals were weaker than 1.59. No background was subtracted.

The variant MITAAMNAYGGSRSNVA, DKAISVN, QQYHHLPLS showed 0.92 (6 of 6 replicates).
The variant HISMMVGTKGYNKNSVA, NAETRYD, QQYHRLPLS showed 1.52 (4 of 6 replicates).
The variant QLQWYNTYATASASNIA, DGAQRLN, QQYMRLPLM showed 0.30 (6 of 6 replicates).
The variant RMQEDNQLGTNIGNNIA, EHQTVFD, QQYAHLPLQ showed 1.67 (5 of 6 replicates).
The variant KVDISATVGYMHKSGIA, EHDMRVG, QQYFRLPLA showed 0.69 (6 of 6 replicates).
The variant MIHESMGLMSHKQSSIA, DNSTRED, QQYDRLPLS showed nd (0 of 6 replicates).
The variant TIGPMLMTESHNKNSVA, GMQTRER, QQYHRLPLS showed 0.32 (6 of 6 replicates).
The variant KVSNSVMLESRNWNAVA, EASTRES, QDYHRLPLS showed 0.04 (6 of 6 replicates).
The variant KVSGSQLYESRNSNAVA, NASNRMS, QQYHRLPLS showed -0.25 (6 of 6 replicates).
The variant KLMYSAEYEQRNKNSVA, EASTRES, QQYHRLPLS showed -0.07 (6 of 6 replicates).
The variant TISQVMNTLERHGNNVA, DLAERED, QQYFRLPLS showed 0.52 (6 of 6 replicates).
The variant MMSQVQGQGTRHRNNVA, QTETREP, QQYDRLPLI showed 0.76 (6 of 6 replicates).
The variant NLVEMEGTNQTKIGNIA, SVDQRMS, QQYQRLPLI showed 0.92 (6 of 6 replicates).
The variant KFSQMVNYESTHVNAVA, QMSTREE, QQYNRLPLS showed 0.49 (6 of 6 replicates).
The variant HVSEMIFAQSKMRNSVA, ENSTRES, QQYDRLPLS showed 2.21 (6 of 6 replicates).
The variant RIQEQMQKPDNIGQNVA, ENQTVID, QQYAHLPLS showed 2.08 (1 of 6 replicates).
The variant IISQSVMGVSRNKNSVA, QTSERNY, QQYDRLPLS showed 0.90 (6 of 6 replicates).
The variant KVSEFMKGLMMRKDSIA, DNNTRGS, QQYDRLPLS showed 1.14 (6 of 6 replicates).
The variant KVYWSVDYGDRNKNSVA, HASRRES, QQYHRLPLS showed 0.96 (6 of 6 replicates).
The variant HMSAVTLMGQRHVNSVA, QMTTRES, QQYDHLPLS showed 0.63 (6 of 6 replicates).
The variant TISQSAQQESHNKNSVA, DLNVRGS, QQYHRLPLS showed 0.45 (6 of 6 replicates).
The variant KMSPSVLYQSRNSNAVA, QASQRES, QQYHRLPLS showed -0.44 (6 of 6 replicates).
The variant KIPQSYLGEWRNCNSVA, NASQRES, QQYHRLPLS showed 0.18 (6 of 6 replicates).
The variant QIALSEEEVGIHKNSIA, ENTVRPE, QQYLRLPLH showed 0.93 (6 of 6 replicates).
The variant MLSQMWALGMKVSNSVA, QASMRFN, QQYDRLPLV showed 1.00 (6 of 6 replicates).
The variant KIYQLGLGSQKIMRNIA, ETSTREL, QSYNRLPLS showed 0.39 (6 of 6 replicates).
The variant KLVGSWLYESRNKNSVA, RASQRCS, QQYHRLPLS showed 1.55 (6 of 6 replicates).
The variant KLSSFHQVESINKSNVA, EMVTREN, QQYDRLPLS showed 3.54 (2 of 6 replicates).
The variant KMSQEAMMLSRNQNSVA, EASTREQ, QQYHRLPLS showed 0.43 (6 of 6 replicates).
The variant MMKQSIEGNPLNTNNIA, DADSVTS, QQYARLPLF showed 0.15 (6 of 6 replicates).
The variant SISGFMKTLSSHKNSVA, DMTNRED, QQYDRLPLS showed -0.14 (6 of 6 replicates).
The variant KLQNSMLYESRNKNSVA, DASKRES, QAYHRLPLS showed 0.22 (6 of 6 replicates).
The variant RLWAYTQGFWRAMQNIA, DISYRVT, QQYGRLPLS showed 2.49 (1 of 6 replicates).
The variant MMSQVTGLGQRQRNNVA, QTSTREP, QQYDRLPLV showed 0.56 (6 of 6 replicates).
The variant ILSQSVLMGSHLKNSVA, QASTRFS, QQYHRLPLI showed 0.61 (6 of 6 replicates).
The variant KLSQMYEYESRWKNSVA, HASTREL, QQYHRLPLS showed 0.50 (6 of 6 replicates).
The variant QISQLMGLSMHGTNNVA, QMETREK, QQYDRLPLS showed 0.73 (6 of 6 replicates).
The variant KMSQEVDLESRNVNSVA, MASTRED, QQYHRLPLS showed 0.59 (6 of 6 replicates).
The variant IISQSVMGESRNKNSVA, QTSERNY, QQYDRLPLA showed 1.13 (6 of 6 replicates).

The last 5 entries again:

CDR-L1,CDR-L2,CDR-L3,mean log10 Kd (nM),detected
ILSQSVLMGSHLKNSVA,QASTRFS,QQYHRLPLI,0.61,6 of 6
KLSQMYEYESRWKNSVA,HASTREL,QQYHRLPLS,0.50,6 of 6
QISQLMGLSMHGTNNVA,QMETREK,QQYDRLPLS,0.73,6 of 6
KMSQEVDLESRNVNSVA,MASTRED,QQYHRLPLS,0.59,6 of 6
IISQSVMGESRNKNSVA,QTSERNY,QQYDRLPLA,1.13,6 of 6

Reference: Li et al. 2023, doi:10.1038/s41467-023-39022-2. File: FLAb, binding data.